# Test results reported in ChEMBL document CHEMBL1133167, “Synthesis and opioid receptor affinity of morphinan and benzomorphan derivatives: mixed kappa agonists and mu agonists/antagonists as potential pharmacotherapeutics for cocaine dependence” (J Med Chem, 2000).
# The chains behind the UniProt entries cited, without tags or fusion partners.
# UniProt P97266, whole entry: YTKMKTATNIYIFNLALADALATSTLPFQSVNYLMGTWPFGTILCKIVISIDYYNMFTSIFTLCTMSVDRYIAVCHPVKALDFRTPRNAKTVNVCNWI
# Target: Mu-type opioid receptor (Cavia porcellus, UniProt P97266)
# Test: Binding affinity towards Opioid receptor mu 1 by displacing the radioligand [3H]DAMGO from guinea pig brain membrane
# Summary of the method: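 Guinea pig brain membranes (homogenised, preincubated 37 °C 30 min, washed), 500 µg protein, with 12 concentrations of compound in 50 mM Tris-HCl pH 7.5 at 25 °C for 60 min. Nonspecific binding defined with 1 µM naloxone. Glass-fibre filtration, with PEI-soaked filters for kappa. IC50 by log-probit fit; three experiments in triplicate, mean ± SEM.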
structure (smiles),measurement,value
Oc1ccc2c(c1)[C@@]13CCCC[C@H]1[C@@H](C2)N(CC1CC1)CC3 [CYCLORPHAN],Ki,0.092 nM
